Data taken from patent US20060136140A1, “Method for identification and functional characterization of agents which modulate ion channel activity” (priority 2004, published 2006).

Amino acid sequences for entries named in this document (tags omitted). A change or cut given only in a name is not applied to a line headed by its entry.
UniProt Q12809: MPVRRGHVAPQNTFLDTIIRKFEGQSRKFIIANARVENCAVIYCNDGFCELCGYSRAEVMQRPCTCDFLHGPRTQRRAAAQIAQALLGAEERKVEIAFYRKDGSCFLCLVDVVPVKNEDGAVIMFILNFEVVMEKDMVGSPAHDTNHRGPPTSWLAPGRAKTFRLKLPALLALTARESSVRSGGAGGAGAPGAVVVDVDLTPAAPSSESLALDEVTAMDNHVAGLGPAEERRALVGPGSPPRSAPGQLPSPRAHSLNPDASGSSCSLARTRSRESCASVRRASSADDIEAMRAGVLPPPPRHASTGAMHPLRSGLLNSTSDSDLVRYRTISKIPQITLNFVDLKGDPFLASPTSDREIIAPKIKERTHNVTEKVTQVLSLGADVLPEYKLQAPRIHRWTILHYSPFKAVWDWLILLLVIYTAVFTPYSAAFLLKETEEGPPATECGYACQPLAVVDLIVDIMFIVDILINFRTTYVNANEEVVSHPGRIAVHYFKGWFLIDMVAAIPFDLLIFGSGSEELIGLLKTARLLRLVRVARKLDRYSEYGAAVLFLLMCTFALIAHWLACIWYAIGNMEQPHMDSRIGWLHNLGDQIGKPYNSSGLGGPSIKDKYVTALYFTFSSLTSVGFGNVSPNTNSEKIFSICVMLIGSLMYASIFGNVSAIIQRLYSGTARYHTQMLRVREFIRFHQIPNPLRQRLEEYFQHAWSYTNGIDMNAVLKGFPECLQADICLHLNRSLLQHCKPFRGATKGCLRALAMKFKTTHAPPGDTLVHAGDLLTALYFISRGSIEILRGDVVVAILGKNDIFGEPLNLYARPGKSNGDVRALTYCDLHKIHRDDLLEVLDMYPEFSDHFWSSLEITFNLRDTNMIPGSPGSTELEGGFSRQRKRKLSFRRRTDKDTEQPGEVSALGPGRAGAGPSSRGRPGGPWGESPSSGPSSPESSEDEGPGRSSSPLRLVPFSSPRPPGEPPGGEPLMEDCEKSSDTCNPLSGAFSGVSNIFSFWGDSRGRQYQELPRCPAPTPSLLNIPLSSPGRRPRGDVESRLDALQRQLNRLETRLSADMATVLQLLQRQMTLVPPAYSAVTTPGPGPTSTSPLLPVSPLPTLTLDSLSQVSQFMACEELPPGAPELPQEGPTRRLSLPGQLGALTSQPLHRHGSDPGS

Key:
HERG K+ channel [1] = molecular target: T1, HERG K+ channel (Homo sapiens, UniProt Q12809)
HERG protein = HERG protein (Homo sapiens, UniProt Q12809)
HERG K+ channel [2] = molecular target: T1, HERG K+ channel; remark: listed apart in the source

`COc1cc(N)c(Cl)cc1C(=O)NC1CCN(CCCOc2ccc(F)cc2)CC1OC` (stereo not drawn) [cisapride, Cisapride] was tested, and the “inhibition of HERG channel (Rb+ efflux), dose response” value (HERG K+ channel [1]) was “partial block”, the “affinity for the [125I]-BeKm-1 site” value (HERG protein) was “low affinity” and the functional responses (HERG K+ channel [2]) was 90˜100%.
